Assay results from PubChem BioAssay (Tox21).
Where “and” joins values, the source holds several entries; their conditions need not be identical. Identical values can stand only once. Only a part is listed here, and it is no random draw. Results filed as inconclusive are left out. A call without a number means that no potency is given here. Calls of active or inactive are those of the source. Unless noted, calls follow the shape of the dose curve; as a rule, active = well fitted curve in the direction sought with a large enough effect in the repeat runs; inconclusive = weak or mixed curves; inactive = no such curve, though single readings can be large; an effect the other way counts as inactive or inconclusive.

Sequences of proteins named here, by UniProt entry; tags and fusion partners are left off. A change or cut given only in a name is not applied to a line headed by its entry.
UniProt Q14994: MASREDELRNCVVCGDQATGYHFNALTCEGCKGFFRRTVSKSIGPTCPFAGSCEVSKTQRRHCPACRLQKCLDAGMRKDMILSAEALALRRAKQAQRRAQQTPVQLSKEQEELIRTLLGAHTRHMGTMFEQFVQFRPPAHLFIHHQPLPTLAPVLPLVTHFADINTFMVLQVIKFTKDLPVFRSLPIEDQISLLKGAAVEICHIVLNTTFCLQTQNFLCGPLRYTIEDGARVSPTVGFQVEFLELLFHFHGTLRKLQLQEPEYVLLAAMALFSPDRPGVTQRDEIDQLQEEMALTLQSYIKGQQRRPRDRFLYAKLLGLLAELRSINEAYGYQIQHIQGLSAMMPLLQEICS
UniProt P16473, whole entry, looked up: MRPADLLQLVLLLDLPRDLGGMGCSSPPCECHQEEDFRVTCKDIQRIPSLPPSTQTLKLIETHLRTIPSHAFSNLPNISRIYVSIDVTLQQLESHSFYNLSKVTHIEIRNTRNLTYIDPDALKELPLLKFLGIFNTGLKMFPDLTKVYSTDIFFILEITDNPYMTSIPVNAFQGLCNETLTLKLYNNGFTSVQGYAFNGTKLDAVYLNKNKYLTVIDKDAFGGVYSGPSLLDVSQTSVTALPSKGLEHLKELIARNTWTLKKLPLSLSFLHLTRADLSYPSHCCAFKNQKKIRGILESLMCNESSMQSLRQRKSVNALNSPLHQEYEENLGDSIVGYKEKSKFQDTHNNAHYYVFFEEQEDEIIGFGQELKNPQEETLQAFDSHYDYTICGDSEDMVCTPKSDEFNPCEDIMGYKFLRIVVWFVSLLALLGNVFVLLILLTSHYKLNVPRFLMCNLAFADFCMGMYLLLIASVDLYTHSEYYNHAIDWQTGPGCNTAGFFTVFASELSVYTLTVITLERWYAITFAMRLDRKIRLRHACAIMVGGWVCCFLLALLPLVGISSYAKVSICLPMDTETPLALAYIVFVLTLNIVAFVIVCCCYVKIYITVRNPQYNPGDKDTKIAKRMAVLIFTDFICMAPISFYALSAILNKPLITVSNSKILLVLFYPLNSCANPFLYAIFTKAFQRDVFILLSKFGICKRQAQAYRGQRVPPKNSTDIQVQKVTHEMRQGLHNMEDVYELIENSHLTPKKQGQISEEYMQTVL
UniProt P08659, whole entry, looked up: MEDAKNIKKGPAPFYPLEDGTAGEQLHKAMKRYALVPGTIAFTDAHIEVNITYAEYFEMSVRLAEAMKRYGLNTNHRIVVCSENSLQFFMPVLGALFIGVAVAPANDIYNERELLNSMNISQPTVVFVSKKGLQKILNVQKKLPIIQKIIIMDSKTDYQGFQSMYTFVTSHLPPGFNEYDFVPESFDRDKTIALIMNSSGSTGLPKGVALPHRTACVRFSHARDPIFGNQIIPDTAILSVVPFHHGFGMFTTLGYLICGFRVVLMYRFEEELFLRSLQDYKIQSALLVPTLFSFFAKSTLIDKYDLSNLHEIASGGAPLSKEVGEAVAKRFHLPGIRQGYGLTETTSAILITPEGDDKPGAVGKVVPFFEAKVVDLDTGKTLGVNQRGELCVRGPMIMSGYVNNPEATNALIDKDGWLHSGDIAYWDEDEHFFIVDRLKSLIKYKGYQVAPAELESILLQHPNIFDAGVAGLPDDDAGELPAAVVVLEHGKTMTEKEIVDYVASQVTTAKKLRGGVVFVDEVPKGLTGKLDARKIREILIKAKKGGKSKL

Tests used:
[1] = target: Nuclear receptor subfamily 1 group I member 3 (Homo sapiens) (UniProt Q14994); experiment: qHTS assay to identify small molecule agonists of the constitutive androstane receptor (CAR) signaling pathway (AID 1224839); details: HepG2 hCAR CYP2B6-luciferase, agonist mode, 24 h;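 also: HepG2 cells stably carrying human CAR and a CYP2B6 luciferase reporter; nearly all actives have a fitted effect of over 15% in size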
[2] = qHTS assay to identify small molecule antagonists of the estrogen related receptor signaling pathway with the pleiotropic PPARgamma coactivator (PGC) from Tox21 10K library - cell viability counter screen (AID 1224840; active = well fitted cell-killing curve with a large enough effect in the repeat runs, not every such curve was filed as active; also: nearly all actives have a fitted effect of over 40% in size); details: PGC/ERR reporter cells viability, CellTiter-Fluor, 17.5 h
Procedure, shortened: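 PGC/ERR cells were seeded at 2,000 cells/well and left 6 hours at 37 C/5% CO2 before pin-tool addition of compounds in DMSO. After 17.5 hours at 37 C, CellTiter-Fluor was added and fluorescence read 30 minutes later.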

[3] = qHTS assay to identify small molecule antagonists of the estrogen related receptor signaling pathway with the pleiotropic PPARgamma coactivator (PGC) from Tox21 10K library (AID 1224841; call rule not given here; also: actives are mostly falling curves and most rising ones were filed inactive; nearly all actives have a fitted effect of over 50% in size; also: potency is read from the fitted curve at half-maximal effect)
[4] = target: Thyrotropin receptor (Homo sapiens) (UniProt P16473); experiment: qHTS assay to identify small molecule agonists of the thyroid stimulating hormone receptor (TSHR) signaling pathway (AID 1224843; calls by dose curve; also: nearly all actives have a fitted effect of over 45% in size; also: potency is read from the fitted curve at half-maximal effect)
[5] = qHTS assay to identify small molecule agonists of the hypoxia (HIF-1) signaling pathway (AID 1224846; active = well fitted activation curve with a large enough effect in the signal ratio in the repeat runs, not every such curve was filed as active; the % refers to the signal ratio); details: HRE-bla ME-180 cells, beta-lactamase ratio, 17 h
Procedure, shortened: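 HRE-bla ME-180 cells (beta-lactamase reporter under hypoxia response element) were plated at 2,000 cells/well in medium with 0.5% dialyzed FBS, rested 5 hrs, then given compounds in DMSO for 17 hrs at 37C, 5% CO2. Reporter induction was read with CCF4-AM FRET substrate.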

[6] = qHTS assay to identify small molecule agonists of H2AX - cell viability counter screen (AID 1224847; calls by dose curve; also: nearly all actives have a fitted effect of over 30% in size; also: potency is read from the fitted curve at half-maximal effect;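 as to activity change, negative = cytotoxicity: wild-type CHO-K1 cells; top concentration of the series differs between compounds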)
Procedure, shortened: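 CHO-K1 wt, 1000 cells/well, o/n 37C; cpds 15 conc, 3 h 37C, 0.76% DMSO; CellTiter-Glo, 30 min RT, luminescence.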

[7] = target: Luciferin 4-monooxygenase (Photinus pyralis) (UniProt P08659); experiment: qHTS assay to identify small molecule inhibitors of firefly luciferase (AID 1224835); also: nearly all actives have a fitted effect of over 25% in size; also: potency is read from the fitted curve at half-maximal effect
Procedure, shortened: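 Biochemical qHTS: compounds run as interplate titrations against purified firefly enzyme, with D-luciferin and ATP each at its KM concentration. Light output recorded by CCD imaging.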

[8] = target: Nuclear receptor subfamily 1 group I member 3 (Homo sapiens) (UniProt Q14994); experiment: qHTS assay to identify small molecule antagonists of the constitutive androstane receptor (CAR) signaling pathway (AID 1224838); also: nearly all actives have a fitted effect of over 40% in size; also: potency is read from the fitted curve at half-maximal effect
[9] = qHTS assay to identify small molecule antagonists of the constitutive androstane receptor (CAR) signaling pathway - cell viability counter screen (AID 1224837); also: nearly all actives have a fitted effect of over 45% in size; also: potency is read from the fitted curve at half-maximal effect
Procedure, shortened: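 HepG2 cells stably expressing hCAR and a CYP2B6-2.2kb reporter were plated and pre-incubated 4 hr at 37 C/5% CO2, then given compounds at 15 concentrations plus 50 nM CITCO (final). After 23 hr, viability was read by CellTiter-Fluor fluorescence.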

[10] = qHTS assay to identify small molecule agonists of the estrogen related receptor signaling pathway with the pleiotropic PPARgamma coactivator (PGC) (AID 1224823); details: ERR/PGC reporter cell line, luciferase agonist mode; at 92.2 µM (top of the series)
Procedure, shortened: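 PGC/ERR reporter cells were seeded, rested 6 h at 37 C/5% CO2, then exposed to compounds in DMSO by pin transfer for 18 h at 37 C. Luciferase activity was read as luminescence after One-Glo reagent and 30 min at room temperature.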

[11] = at 92.4 µM (top of the series) unless noted
[12] = at 76.8 µM (top of the series) unless noted

## CN(N=O)C(=N)N[N+](=O)[O-]
[1]; [11]
  activation: inactive: -8.27%
[2]; [11]
  viability change, negative = cytotoxic: inactive: -11.1%
[3]
  Potency: inactive
[4]
  Potency: inactive
[5]; [12]
  activation: inactive: 0.0404%
[6]
  Potency: inactive

## O=[N+]([O-])c1ccc([N+](=O)[O-])cc1
[7]
  Potency: inactive

## CCCCCCCCCCCCCC[P+](CCCCCC)(CCCCCC)CCCCCC
[7]
  Potency: inactive
[4]
  Potency: inactive

## Cc1cc([N+](=O)[O-])c(O)c([N+](=O)[O-])c1
[7]
  Potency: inactive
[8]
  Potency: inactive
[1]; [11]
  activation: inactive: 0.582%
[3]
  Potency: inactive
[4]
  Potency: inactive
[5]; [12]
  activation: inactive: 0.47%
[6]
  Potency: inactive

## CCOC(=O)Cl
[7]
  Potency: inactive
[9]
  Potency: inactive
[8]
  Potency: inactive
[1]; [11]
  activation: inactive: -0.502%
[2]; [11]
  viability change, negative = cytotoxic: inactive: 3.16%
[4]
  Potency: inactive
[5]; [12]
  activation: inactive: -1.05%
[6]
  Potency: inactive

## CC(C)CCCCCCCOP(OCCCCCCCC(C)C)Oc1ccccc1
[7]
  Potency: inactive
[9]
  Potency: inactive
[8]
  Potency: inactive
[1]; [11]
  activation: inactive: 10.7%
[2]; [11]
  viability change, negative = cytotoxic: inactive: 2.99%
[3]
  Potency: inactive
[5]; [12]
  activation: inactive: 0.838%

## COP(=S)(Cl)OC
[9]
  Potency: inactive
[8]
  Potency: inactive
[1]; [11]
  activation: inactive: -7.01%
[2]; [11]
  viability change, negative = cytotoxic: inactive: 0.391%
[4]
  Potency: inactive
[5]; [12]
  activation: inactive: 0.727%
[6]
  Potency: inactive

## O=P(Cl)(Oc1ccccc1)Oc1ccccc1
[7]
  Potency: inactive
[9]
  Potency: inactive
[8]
  Potency: inactive
[1]; [11]
  activation: inactive: 2.27%
[2]; [11]
  viability change, negative = cytotoxic: inactive: 7.01%
[4]
  Potency: inactive
[5]; [12]
  activation: inactive: 0.376%
[6]
  Potency: inactive

## CCCCC(CC)CO[P+](=O)OCC(CC)CCCC (stereo unspecified)
[7]
  Potency: inactive
[9]
  Potency: inactive
[8]
  Potency: inactive
[1]; [11]
  activation: inactive: -2.05%
[2]; [11]
  viability change, negative = cytotoxic: inactive: 1.33%
[4]
  Potency: inactive
[5]; [12]
  activation: inactive: -0.396%
[6]
  Potency: inactive

## CCCCOP(OCCCC)OCCCC
[7]
  Potency: inactive
[9]
  Potency: inactive
[8]
  Potency: inactive
[2]; [11]
  viability change, negative = cytotoxic: inactive: 1.13%
[4]
  Potency: inactive
[5]; [12]
  activation: inactive: 0.0217%
[6]
  Potency: inactive

## CN(C(=O)Cc1ccc(Cl)c(Cl)c1)[C@H]1CC[C@@]2(CCCO2)C[C@@H]1N1CCCC1
[7]
  Potency: inactive
[9]
  Potency: inactive
[8]
  Potency: inactive
[1]; [11]
  activation: inactive: -7.66% [at 42.5 µM]
[2]; [11]
  viability change, negative = cytotoxic: inactive: -3.78% [at 42.5 µM]
[6]
  Potency: inactive

## O=P(Cl)(Cl)c1ccccc1
[7]
  Potency: inactive
[9]
  Potency: inactive
[8]
  Potency: inactive
[1]; [11]
  activation: inactive: -0.126%
[2]; [11]
  viability change, negative = cytotoxic: inactive: 9.32%
[3]
  Potency: inactive
[4]
  Potency: inactive
[5]; [12]
  activation: inactive: 0.034%
[6]
  Potency: inactive

## CC(C)OP(=S)(OC(C)C)SCCNS(=O)(=O)c1ccccc1
[9]
  Potency: inactive
[8]
  Potency: inactive
[5]; [12]
  activation: inactive: 1.39%

## O=C(Cl)OCCOC(=O)Cl
[9]
  Potency: inactive
[2]; [11]
  viability change, negative = cytotoxic: inactive: 3.18%
[4]
  Potency: inactive
[5]; [12]
  activation: inactive: -0.719%
[6]
  Potency: inactive

## O=C(Cl)Oc1ccccc1
[7]
  Potency: inactive
[9]
  Potency: inactive
[8]
  Potency: inactive
[1]; [11]
  activation: inactive: 0.324%
[2]; [11]
  viability change, negative = cytotoxic: inactive: -3.46%
[4]
  Potency: inactive
[5]; [12]
  activation: inactive: -0.0149%
[6]
  Potency: inactive

## CCOP(=S)(CC)Sc1ccccc1 (stereo unspecified)
[7]
  Potency: inactive
[9]
  Potency: inactive
[8]
  Potency: inactive
[2]; [11]
  viability change, negative = cytotoxic: inactive: -2.42%
[3]
  Potency: inactive
[4]
  Potency: inactive
[5]; [12]
  activation: inactive: 1.37%
[6]
  Potency: inactive

## O=[As]c1ccccc1 (stereo unspecified)
[7]
  Potency: active: 31.7 µM
[9]
  Potency: active: 0.864 µM
[8]
  Potency: active: 0.486 µM
[1]; [11]
  activation: inactive: -18.1%
[3]
  Potency: active: 193 nM
[6]
  Potency: active: 12.7 µM

## Cc1cc([N+](=O)[O-])cc([N+](=O)[O-])c1O
[10]
  activation: inactive: -16.8%
[7]
  Potency: inactive
[8]
  Potency: inactive
[3]
  Potency: active: 15.4 µM and active: 25.3 µM
[4]
  Potency: inactive
[5]; [12]
  activation: inactive: -0.866%

## O=C1C2CC=CCC2C(=O)N1SC(Cl)(Cl)C(Cl)Cl (stereo unspecified)
[1]; [11]
  activation: inactive: -16.5% and inactive: -25.5%
[4]
  Potency: active: 7.7 µM

## ClP(Cl)c1ccccc1
[7]
  Potency: inactive
[9]
  Potency: inactive
[2]; [11]
  viability change, negative = cytotoxic: inactive: 8.36%
[5]; [12]
  activation: inactive: 0.0801%
[6]
  Potency: inactive

## O=[P+](Oc1ccccc1)Oc1ccccc1
[7]
  Potency: inactive
[8]
  Potency: inactive
[1]; [11]
  activation: inactive: 0.13%
[2]; [11]
  viability change, negative = cytotoxic: inactive: 0.339%
[4]
  Potency: inactive
[5]; [12]
  activation: inactive: 1.09%
[6]
  Potency: inactive

## CCC(C)(OOC(C)(C)C)OOC(C)(C)C
[7]
  activity change, negative = inhibition: inactive: 0.643% [at 23.6 µM]
[9]
  activity change, negative = cytotoxicity: inactive: -3.11% [at 19 µM]
[8]
  activity, negative = inhibition: inactive: 4.19% [at 19 µM]
[1]; [11]
  activation: inactive: -0.0445% [at 19 µM]
[2]; [11]
  viability change, negative = cytotoxic: inactive: -10.8% [at 19 µM]
[3]
  activity, negative = inhibition: inactive: 36.9% [at 19 µM]
[4]
  activation: inactive: -1.49% [at 19 µM]
[5]; [12]
  activation: inactive: -0.0206% [at 15.8 µM]
[6]
  activity change, negative = cytotoxicity: inactive: 3.2% [at 31.6 µM]

## NC(=O)Nc1ccc([As](=O)(O)O)cc1
[9]
  Potency: inactive
[8]
  Potency: inactive
[1]; at 42.5 µM (top of the series)
  activation: inactive: -0.403%
[1]; at 92.4 µM (top of the series)
  activation: inactive: -0.0597%
[2]; at 42.5 µM (top of the series)
  viability change, negative = cytotoxic: inactive: -0.613%
[2]; at 92.4 µM (top of the series)
  viability change, negative = cytotoxic: inactive: -1.96%
[5]; at 35.5 µM (top of the series)
  activation: inactive: -0.456%
[5]; at 76.8 µM (top of the series)
  activation: inactive: 0.0793%

## N#CSc1ccc([N+](=O)[O-])cc1[N+](=O)[O-]
[1]; [11]
  activation: inactive: -24.5%
[6]
  Potency: active: 45 µM

## O=[N+]([O-])c1ccc(S(=O)(=O)O)c([N+](=O)[O-])c1
[9]
  Potency: inactive
[2]; [11]
  viability change, negative = cytotoxic: inactive: 0.427%
[4]
  Potency: active: 2.75 µM
[6]
  Potency: inactive

## CCCCO[P+](=O)OCCCC
[7]
  Potency: inactive
[9]
  Potency: inactive
[8]
  Potency: inactive
[1]; [11]
  activation: inactive: -0.873% and inactive: -1.09%
[2]; [11]
  viability change, negative = cytotoxic: inactive: -3.15% and inactive: 3.69%
[3]
  Potency: inactive
[4]
  Potency: inactive
[5]; [12]
  activation: inactive: 0.0918% and inactive: -0.073%
[6]
  Potency: inactive

## COC(=O)Cl
[7]
  Potency: inactive
[9]
  Potency: inactive
[8]
  Potency: inactive
[1]; [11]
  activation: inactive: -0.782%
[2]; [11]
  viability change, negative = cytotoxic: inactive: 2.64%
[5]; [12]
  activation: inactive: -0.841%
[6]
  Potency: inactive

## CN(C(=O)Cc1ccccc1)[C@H]1CC[C@@]2(CCCO2)C[C@@H]1N1CCCC1
[7]
  Potency: inactive
[8]
  Potency: inactive
[1]; [11]
  activation: inactive: -5.13% [at 42.5 µM]
[2]; [11]
  viability change, negative = cytotoxic: inactive: -12.4% [at 42.5 µM]
[4]
  Potency: inactive
[6]
  Potency: inactive

## CCNC(C)Cc1ccc2c(c1)OCO2 (stereo unspecified)
[7]
  Potency: inactive
[9]
  Potency: inactive
[8]
  Potency: inactive
[1]; [11]
  activation: inactive: -1.99%
[2]; [11]
  viability change, negative = cytotoxic: inactive: 16.5%
[3]
  Potency: inactive
[4]
  Potency: inactive
[6]
  Potency: inactive

## CN(C(=O)Cc1cccc2occc12)[C@H]1CC[C@@]2(CCCO2)C[C@@H]1N1CCCC1
[7]
  Potency: inactive
[9]
  Potency: inactive
[8]
  Potency: inactive
[1]; [11]
  activation: inactive: -3.67%
[2]; [11]
  viability change, negative = cytotoxic: inactive: -8.15%
[4]
  Potency: inactive
[5]; [12]
  activation: inactive: -1.29%
[6]
  Potency: inactive

## O=[p+]1oc2ccccc2c2ccccc21 (stereo unspecified)
[7]
  Potency: inactive
[9]
  Potency: inactive
[8]
  Potency: inactive
[1]; [11]
  activation: inactive: 3.29%
[2]; [11]
  viability change, negative = cytotoxic: inactive: -1.42%
[3]
  Potency: inactive
[4]
  Potency: inactive
[5]; [12]
  activation: inactive: -1.3%
[6]
  Potency: inactive
